# Earlier results, collected in patent publication US20260285867A1, “IMIDAZOTRIAZINE DERIVATIVES AS IL-17 MODULATORS” (UCB BIOPHARMA SRL, priority 2023, published 2026).
# Sequences of proteins named here, by UniProt entry; tags and fusion partners are left off. Residues count along the entry.
# UniProt Q16552, 24-155 limits assumed: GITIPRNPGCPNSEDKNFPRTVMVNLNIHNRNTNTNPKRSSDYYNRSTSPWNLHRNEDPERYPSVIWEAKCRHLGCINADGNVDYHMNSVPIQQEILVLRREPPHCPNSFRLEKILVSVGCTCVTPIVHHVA
# Biological target: IL-17A (Homo sapiens, UniProt Q16552)
# Details: comparative data, values as stated in WO 2023/275301; cited from earlier work
row,Structure (SMILES),pIC50
1,Cc1nonc1C(=O)N[C@H](c1cn2ncc(C3(C(=O)NCC(C)(F)F)CCOCC3)nc2n1)C1CCC(F)(F)CC1,7.9
2,Cc1nonc1C(=O)N[C@H](c1cn2ncc(C3(C(=O)NCC(C)(F)F)CCN(C4COC4)CC3)nc2n1)C1CCC(F)(F)CC1,7.8
